pKd: −log10 of the molar value.
How the values were obtained:
[1] = target: T1, apelin receptor (Homo sapiens, UniProt P35414); assay: Plasmon waveguide resonance (PWR) ligand binding; settings: HEK-apelin receptor cell membrane fragments on polylysine-treated sensor, 22 °C, n = 3
T1 sequence (P35414 1-380): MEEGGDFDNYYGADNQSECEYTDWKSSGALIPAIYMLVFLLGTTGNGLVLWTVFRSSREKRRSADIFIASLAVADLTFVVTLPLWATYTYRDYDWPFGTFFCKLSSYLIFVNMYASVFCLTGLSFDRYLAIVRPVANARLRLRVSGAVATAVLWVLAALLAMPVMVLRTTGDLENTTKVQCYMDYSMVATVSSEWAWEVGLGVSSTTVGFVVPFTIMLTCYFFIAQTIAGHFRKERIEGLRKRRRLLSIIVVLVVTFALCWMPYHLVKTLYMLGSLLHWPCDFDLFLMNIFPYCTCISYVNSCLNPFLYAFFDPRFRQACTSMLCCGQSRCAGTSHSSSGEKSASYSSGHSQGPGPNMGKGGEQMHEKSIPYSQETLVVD

[2] = tested on: E-selectin; assay: E-selectin expression in endothelial cells (LSEC, HMEC-1, HUVEC); format: cell-based, human; settings: 100 nM apelin, time course

apelin [reference compound]
pKd [1]: ~10.00
E-selectin mRNA levels in LSEC [2]: increased at 2 h, peaked at 6 h, and remained elevated even after 8 h
